From ChEMBL document CHEMBL1137168, “Tubulin inhibitors. Synthesis and biological activity of HTI-286 analogs with B-segment heterosubstituents” (Bioorg Med Chem Lett, 2004)

Test system: Tubulin
Experiment: Compound was evaluated for the inhibition of MAP-rich tubulin polymerisation at 0.3 uM

Structure (SMILES): CN[C@H](C(=O)N[C@H](C(=O)N(C)[C@H](/C=C(\C)C(=O)O)C(C)C)C(C)(C)SC)C(C)(C)c1ccccc1
- inhibition: 95%
